{"source": "patent US12460050B2", "about": "“Nitric oxide-releasing hyperbranched compounds as antibacterial scaffolds and methods pertaining thereto” (The University of North Carolina at Chapel Hill, priority 2017, dated 2025)", "system": "L929 mouse fibroblasts", "data": [{"substance": "Hyperbranched poly(methylene bisacrylamide-hydroxyethyl ethylenediamine) [HBPMH]", "values": [{"measurement": "toxicity to L929 mouse fibroblast cells in vitro (in words)", "value": "non-toxic"}]}]}
